High-throughput results as filed in PubChem BioAssay.
Hits are enriched below; roughly 0.73% of the tested compounds scored in any of these assays.
RAD52 inh: RAD52 (human) annealing inhibition. AID 651710. recombinant RAD52 DNA annealing, FRET fluorescence. 360,000 tested, 0.46% active. inhibition, % at 18.7 µM;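 active = every replicate showing at least 50% inhibition; inconclusive = mean inhibition at least 50% but not in every replicate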
Yeast UUG start: alters start codon recognition fidelity in yeast | S. cerevisiae UUG-firefly luciferase reporter, luminescence/redox ratio | activity score, % at 18.7 µM | 350,000 compounds, 0.13% hits | AID 602363;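 active = replicate mean at a twofold rise or more, about +100% in these data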;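 note: firefly luciferase made from a UUG start codon reports start codon fidelity; reporter light over untreated wells divided by growth signal over untreated wells; some hits fall short of that in this replicate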
XiGFP reactiv: X-chromosome reactivation activator; 360,000 tested, 0.055% active; XiGFP mouse fibroblasts, % GFP-positive cells imaging, 3 d; cells co-treated with 5-aza-dC sensitizer; scaled so ellipticine positive control = 100%; activation, % at 7.58 µM;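 active = mean normalized replicate activation at least 10% and every replicate at or above 10%; inconclusive = only one of the two criteria met; inactive = mean below 10% and not all replicates reach 10%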;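 note: 0% = median of on-plate neutral control wells and 100% = ellipticine 6 µM median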
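assay system = SV40-immortalized XiGFP fibroblast cells, line 68-5-11 | buffer or medium = DMEM plus 5-aza-dC sensitizer | doses = single-point pinned compound dosing | times = 3-day compound exposure, then 15 min fixation at room temperature | benchmarks = positive control ellipticine, 6 µM final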
E-sel inducer: E-selectin induction on HUVECs; P16581; HUVEC E-selectin immunofluorescence imaging; normalized: neutral wells 0, TNF-alpha wells 100; activation, % at 7.58 µM; 260,000 tested, 0.37% active;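 active = mean E-selectin-positive cell signal at least 10% of the positive control, reached in at least 60% of replicates, without over 20% cell loss; inconclusive = no rule given, readout overlaps actives, possibly toxicity-flagged; inactive = the rest, including those meeting only one limit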
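material = human umbilical vein endothelial cells (HUVEC), E-selectin induction | quantity = 3,000 cells/well | medium = EGM-2 growth medium on 0.1% gelatin-coated wells | technique = immunofluorescence imaging | read-out basis = % PE-positive cells | control set = TNF-alpha positive control, DMSO neutral control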
RAD54 inh: blocks human RAD54 Holliday junction branch migration; FAM/BHQ fluorescence; Q92698; 360,000 tested, 0.14% active; AID 602329; inhibition, % at 10.4 µM;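 active = mean normalized replicate activity at least 40 and at least half of replicates scoring 40 or more; inconclusive = only one of the two criteria met; inactive = mean below 40 and under half of replicates reaching 40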;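 note: 0% = median of neutral control wells and 100% = median of positive control wells; inhibitors cause a drop in the FAM fluorescence signal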
DNA binding: binds DNA, flagging false Rad54 inhibitor hits; 460 tested, 8% active; shares compounds with RAD54 inh; Acridine orange-DNA displacement, fluorescence polarization, 20 min; AC50, µM (highest dose often 35 µM), for the others: at the highest dose activity change, negative = DNA binding;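 active = signal drop giving an AC50 within twice the top valid tested concentration of each sample, actives reach about 35 µM in these data; inactive = activity opposite to expected, plus the rest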;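 note: polarization loss reports compound binding to salmon sperm DNA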
Active calls of the source: *; i = inactive; ? = inconclusive; . = not tested or not shown.

Keys: A = RAD52 inh; B = Yeast UUG start; C = XiGFP reactiv; D = E-sel inducer; E = RAD54 inh; F = DNA binding
1) c1cc2c3c(cccc3c1)C(N1CCCCCC1)=N2
  A: . | B: -9.7 | C: . | D: . | E: 18.0 | F: .
2) c1cc2c3c(cccc3c1)C(N1CCCCC1)=N2
  A: . | B: -14.4 | C: . | D: . | E: 65.0* | F: -19.5%
3) O=C(C1CCCC1)N1C[C@@H]2[C@H](c3ccccc31)[C@@H](CO)N2C(=O)c1cccnc1
  A: -13.4 | B: 47.7 | C: 0.1 | D: -0.5 | E: 1.8 | F: .
4) Cn1c2ccc(F)cc2c2ncn(CCCN(CCO)CCO)c(=O)c21
  A: . | B: -4.3 | C: . | D: . | E: 54.4* | F: -13.6%
5) COc1ccc(S(=O)(=O)Nc2ccc3c(c2)C(=O)N([C@@H](C)CO)C[C@H](C)[C@@H](CN(C)S(=O)(=O)c2ccccc2)O3)cc1
  A: -11.1 | B: 4.4 | C: -1.2 | D: -0.6 | E: -6.9 | F: .
6) Cc1ccc2c(c1)c1nc3ccccc3nc1n2CCN1CCOCC1
  A: . | B: -2.1 | C: . | D: . | E: 63.4* | F: 2.0%
7) COc1cc2[nH]c3c(=O)n(CCN4CCCCC4)cnc3c2cc1OC
  A: . | B: -17.4 | C: . | D: . | E: 54.8* | F: -14.7%
8) Cc1ccc(S(=O)(=O)N[C@@H]2CC[C@@H](CCn3cc(C(C)C)nn3)O[C@@H]2CO)cc1
  A: 4.0 | B: -1.8 | C: -0.6 | D: -0.8 | E: -8.9 | F: .
9) NC(=O)C1CCN(c2nc(-c3cccc(N)c3)cs2)CC1
  A: . | B: -2.2 | C: 0.1 | D: 0.2 | E: 4.1 | F: .
10) NC(=O)C1CCN(c2nc(-c3cccnc3)cs2)CC1
  A: 10.9 | B: 3.5 | C: 0.0 | D: 0.6 | E: 59.7* | F: 13.6%
11) COC(=O)Nc1nnc(COc2ccccc2)s1
  A: 3.8 | B: -0.7 | C: 0.1 | D: . | E: ? | F: 2.7%
12) COC(=O)Nc1nnc(COc2cccc(C)c2)s1
  A: -24.9 | B: . | C: 0.2 | D: . | E: . | F: .
13) CN1CCN(c2nc(-c3cccnc3)nc3ccccc23)CC1
  A: -4.4 | B: -28.9 | C: . | D: . | E: 57.4* | F: -19.7%
14) CN1CCN(c2nc(-c3ccccn3)nc3ccccc23)CC1
  A: . | B: -12.5 | C: . | D: . | E: ? | F: 8.8%
15) c1cncc(-c2nc(N3CCCCCC3)c3ccccc3n2)c1
  A: . | B: 0.6 | C: . | D: . | E: 4.4 | F: .
16) O=C(Nc1nccs1)[C@@H]1[C@@H](CO)[C@@H]2Cn3c(cccc3=O)[C@@H]2N1C(=O)C1CC1
  A: -8.5 | B: . | C: 0.6 | D: 0.1 | E: -1.9 | F: .
17) CCNC(=O)[C@H]1[C@H](CO)[C@H]2Cn3c(ccc(-c4ccc(F)cc4)c3=O)[C@H]2N1C(=O)Cc1cccnc1
  A: 1.4 | B: . | C: 0.8 | D: -0.3 | E: -4.5 | F: .
18) CO[C@H]1CN(C)C(=O)c2ccc(NC(=O)C3CCOCC3)cc2OC[C@H](C)N(C(C)=O)C[C@H]1C
  A: -5.0 | B: 15.5 | C: 0.0 | D: 0.1 | E: 1.2 | F: .
19) CN1CCc2c(sc(NC(=O)c3ccc4ccccc4c3)c2C(N)=O)C1
  A: . | B: -7.6 | C: . | D: . | E: ? | F: .
20) CC(C)N1CCc2c(sc(NC(=O)c3ccc(S(=O)(=O)N4CCOCC4)cc3)c2C(N)=O)C1
  A: -244.2 | B: 5.7 | C: 0.1 | D: 0.1 | E: 21.0 | F: .
21) COc1cc2ccccc2cc1C(=O)Nc1sc2c(c1C(N)=O)CCN(C(C)C)C2
  A: -16.0 | B: -6.2 | C: -0.1 | D: 1.6 | E: 81.4* | F: -22.8%
22) CCN1CCc2c(sc(NC(=O)c3ccc(S(=O)(=O)N4CCOCC4)cc3)c2C(=O)OC)C1
  A: . | B: 2.7 | C: . | D: . | E: 80.3* | F: -1.0%
23) CCN1CCc2c(sc(NC(=O)c3ccc(S(=O)(=O)N4CCCCCC4)cc3)c2C(=O)NC)C1
  A: 0.8 | B: -5.4 | C: -0.1 | D: 0.1 | E: -9.0 | F: .
24) CCOC(=O)c1c(NC(=O)c2ccc(S(=O)(=O)N3CCOCC3)cc2)sc2c1CCN(C(C)C)C2
  A: -241.5 | B: -22.2 | C: 0.1 | D: . | E: 79.1* | F: -10.5%
25) CCN1CCc2c(sc(NC(=O)c3ccc(C(=O)c4ccccc4)cc3)c2C(N)=O)C1
  A: -41.0 | B: -3.4 | C: 0.1 | D: . | E: ? | F: 9.2%

Among those listed so far, 2 have a halogen.
Keys: A = RAD52 inh; B = Yeast UUG start; C = XiGFP reactiv; D = E-sel inducer; E = RAD54 inh; F = DNA binding
4) Cn1c2ccc(F)cc2c2ncn(CCCN(CCO)CCO)c(=O)c21
  A: . | B: -4.3 | C: . | D: . | E: 54.4* | F: -13.6%
17) CCNC(=O)[C@H]1[C@H](CO)[C@H]2Cn3c(ccc(-c4ccc(F)cc4)c3=O)[C@H]2N1C(=O)Cc1cccnc1
  A: 1.4 | B: . | C: 0.8 | D: -0.3 | E: -4.5 | F: .

Next records:
Keys: A = RAD52 inh; B = Yeast UUG start; C = XiGFP reactiv; D = E-sel inducer; E = RAD54 inh; F = DNA binding
26) C[C@H](CO)N1C[C@H](C)[C@H](CN(C)C(=O)Nc2ccc3c(c2)OCO3)Oc2c(NS(=O)(=O)c3ccccc3)cccc2C1=O
  A: 6.3 | B: 11.1 | C: . | D: . | E: -0.1 | F: .
27) COc1cccc(NC(=O)C[C@@H]2CC[C@@H]3[C@H](COc4ccc(NC(=O)C5CCCCC5)cc4C(=O)N3C)O2)c1
  A: -0.3 | B: -3.7 | C: 0.5 | D: 0.1 | E: 2.4 | F: .
28) C[C@@H]1CCCCO[C@@H](CN(C)C(=O)c2ccccc2)[C@@H](C)CN([C@@H](C)CO)C(=O)c2cc(NS(=O)(=O)c3ccc(Cl)cc3)ccc2O1
  A: 14.7 | B: -14.0 | C: 0.1 | D: -0.2 | E: -0.6 | F: .
29) C[C@@H]1CN([C@@H](C)CO)C(=O)c2ccccc2-c2ccccc2CO[C@@H]1CN(C)Cc1ccc2c(c1)OCCN2C
  A: -5.4 | B: . | C: 0.1 | D: -0.2 | E: -3.1 | F: .
30) COCCNC(=O)C[C@H]1C[C@@H]2c3cc(NC(=O)CC4CC4)ccc3O[C@@H]2[C@@H](CO)O1
  A: -5.8 | B: -14.5 | C: 0.0 | D: -0.1 | E: -3.3 | F: .
31) CCN(CC)CCNC(=O)c1cc2c(-c3ccc(Cl)cc3)nn(C)c2s1
  A: 60.6* | B: 10.8 | C: 0.0 | D: . | E: 112.7* | F: i
32) Cc1ccc2[nH]c(=O)c3cc(C(=O)NCCN4CCN(C)CC4)sc3c2c1
  A: 26.1 | B: -0.4 | C: 0.1 | D: . | E: 57.3* | F: -13.3%
33) C[C@H](CO)N1C[C@H](C)[C@H](CN(C)C(=O)Nc2ccc(-c3ccccc3)cc2)OCc2ccccc2-c2c(n(C)c3ccccc23)C1=O
  A: 13.1 | B: . | C: 0.6 | D: 0.9 | E: . | F: .
34) CCN(CC)CC(=O)Nc1cc(N(C)C)nc2ccccc12
  A: 31.1 | B: -2.0 | C: 0.0 | D: 0.1 | E: 51.3* | F: -2.7%
35) CC(N)c1csc(Nc2nncc3ccccc23)n1 (stereo unspecified)
  A: 40.4 | B: -5.2 | C: 0.1 | D: 4.9 | E: 70.2* | F: -0.7%
36) COc1ccc(-c2ccc3c(c2)[C@@H]2[C@@H](CCN2S(=O)(=O)c2ccc(OC)cc2)[C@@H](CO)N3C)cc1
  A: 40.2 | B: -11.2 | C: 0.4 | D: -0.2 | E: 2.7 | F: .
37) CCN1CCCC1CNC(=O)c1cc2c(C)nc3ccccc3c2o1 (stereo unspecified)
  A: . | B: -9.6 | C: . | D: . | E: 27.5 | F: .
38) Cc1nc2ccccc2c2oc(C(=O)NCCN3CCCCC3C)cc12 (stereo unspecified)
  A: -5.3 | B: -16.6 | C: 0.1 | D: 4.4 | E: 52.4* | F: -18.9%
39) Cc1nc2ccccc2c2oc(C(=O)N3CCC(N4CCCCC4)CC3)cc12
  A: . | B: -25.2 | C: . | D: . | E: 67.1* | F: -5.1%
40) CC(C)NC(=O)N[C@@H]1C=C[C@H](CC(=O)NCc2ccc(Oc3ccccc3)cc2)O[C@@H]1CO
  A: -3.7 | B: . | C: -0.1 | D: 0.4 | E: . | F: .
41) O=C(NN1CCOCC1)c1cc(-c2ccccc2)nc2ccccc12
  A: . | B: -34.9 | C: . | D: . | E: -6.1 | F: .
42) O=C(NN1CCOCC1)c1cc(-c2ccc(Cl)c(Cl)c2)nc2ccccc12
  A: . | B: -7.1 | C: 0.3 | D: -0.3 | E: ? | F: 7.1%
43) C[C@H](CO)N1C[C@H](C)[C@@H](CN(C)S(=O)(=O)c2ccccc2)Oc2ncc(/C=C/c3ccccc3)cc2C1=O
  A: 19.4 | B: 18.4 | C: 0.1 | D: 0.2 | E: 2.5 | F: .
44) CCOC(=O)c1c(C)n(C)c2ccc(OCC(O)CN3CCC(C)CC3)cc12 (stereo unspecified)
  A: 25.7 | B: -4.6 | C: -0.1 | D: . | E: ? | F: -7.6%
45) CCOC(=O)c1c(CN2CCCCC2)n(C)c2cc(Br)c(OC)cc12
  A: . | B: -6.8 | C: . | D: . | E: ? | F: -16.6%
46) COc1ccc2nc(-c3ccc(N)cc3)[nH]c2c1
  A: . | B: -9.1 | C: . | D: . | E: 77.2* | F: -4.9%
47) COc1ccccc1C1=NOC(Cn2c(NCC3CCCO3)nc3c2c(=O)n(C)c(=O)n3C)C1 (stereo unspecified)
  A: -6.9 | B: 3.2 | C: 0.0 | D: 0.0 | E: -3.5 | F: .
